Data on one substance can be found in paper PMC3285104.

Sequences of proteins named here, by UniProt entry; tags and fusion partners are left off. Residues count along the entry.
UniProt P62871, whole entry, chain 1 of 2: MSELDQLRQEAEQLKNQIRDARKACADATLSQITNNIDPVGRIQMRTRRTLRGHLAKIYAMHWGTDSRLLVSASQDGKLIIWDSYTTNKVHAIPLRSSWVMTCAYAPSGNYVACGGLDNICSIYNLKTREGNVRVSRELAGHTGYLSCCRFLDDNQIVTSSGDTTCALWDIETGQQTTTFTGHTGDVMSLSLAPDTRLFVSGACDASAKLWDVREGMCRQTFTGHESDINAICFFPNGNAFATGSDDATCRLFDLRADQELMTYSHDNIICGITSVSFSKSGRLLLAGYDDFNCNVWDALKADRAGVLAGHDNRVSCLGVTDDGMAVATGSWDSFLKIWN
UniProt P60880, whole entry: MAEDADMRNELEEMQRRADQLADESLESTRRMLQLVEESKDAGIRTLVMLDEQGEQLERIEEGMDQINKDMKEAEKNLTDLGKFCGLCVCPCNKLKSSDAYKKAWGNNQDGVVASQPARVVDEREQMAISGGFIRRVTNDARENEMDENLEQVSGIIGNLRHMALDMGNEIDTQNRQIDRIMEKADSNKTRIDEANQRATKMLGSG
binary t-SNARE complex (SNAP25 with the H3 domain of syntaxin 1A), UniProt P32851, 191-265: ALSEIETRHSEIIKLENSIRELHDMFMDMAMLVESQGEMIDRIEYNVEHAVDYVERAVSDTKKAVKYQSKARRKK

This experiment deals with Gβ1γ1 (bovine (endogenous in retina)) (UniProt P62871). In words: resonant waveguide grating biosensor.

For the substance “binary t-SNARE complex (SNAP25 with the H3 domain of syntaxin 1A) (from UniProt P60880 1-206; P32851 191-265)”, the waveshift (2 μM t-SNARE, without compound) stood at 265 pm.
